# Measured affinities in a library of Ab-14 light chain variants

Target peptide (SARS-CoV-2 spike, HR2 region): PDVDLGDISGINAS

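This is the validation round: designs drawn from the data on random variants, tested in the same kind of assay. Group labels follow the data file (Ctrl: baseline library sampled from a position-specific scoring matrix, with some repeated check sequences; En: ensemble of fine-tuned language models; GP: Gaussian process model; HC: hill climbing; Gen: genetic algorithm; Gibbs: Gibbs sampling; a sequence that several methods proposed may carry one label only). In AlphaSeq, yeast of one mating type display the scFv and yeast of the other type display the target. After mating in shaken culture at 30 °C for 16 h, diploids were selected and their barcode pairs sequenced. A regression on co-assayed BCL2-family reference pairs converts the normalised counts of each replicate to an apparent Kd. Mating was done six times.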

The variants keep the heavy chain, the linker and the frameworks of Ab-14 (scFv order VH, a (GGGGS)3 linker, VL).
VH: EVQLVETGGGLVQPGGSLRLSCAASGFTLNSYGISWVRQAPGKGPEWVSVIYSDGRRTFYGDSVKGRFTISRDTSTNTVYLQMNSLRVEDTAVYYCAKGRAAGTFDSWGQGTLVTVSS
VL: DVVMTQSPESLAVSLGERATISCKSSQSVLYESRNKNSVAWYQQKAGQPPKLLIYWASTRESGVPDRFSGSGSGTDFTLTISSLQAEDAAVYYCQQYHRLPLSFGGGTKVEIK

Variants are written as CDR1, CDR2 and CDR3 of the light chain (limits as in the source). Parent: KSSQSVLYESRNKNSVA, WASTRES, QQYHRLPLS.
The Kd shown is the geometric mean over detected replicates; a lower Kd is a better binder.
Where no diploid with the target was found in any replicate, the entry reads "nd": below detection, most likely a poor binder, though not proof of it.
Values of this round are not directly comparable with the first-round values of the same sequences.
The authors averaged sequences with at least three values out of six and counted those with two or fewer as poor binders.
As a blank, each scFv also met three strains without target: over all light chain designs, 4% of these pairings were detected, typically at 430 nM and seldom below 38 nM.

CDR-L1 | CDR-L2 | CDR-L3 | group | apparent Kd | seen in
QIDDEEPSEGLKWNSIA | GVATRLQ | QQYARLPLI | En_Gibbs | 5.3 nM | 6/6
TISQMLLMQTYHKNSVA | GEETRYN | QQYHRLPLS | En_HC | 20 nM | 6/6
KSSQSVLYESTNKNSVA | EASTRES | QQYHRLPLS | Ctrl | 4.4 nM | 6/6
KSSPSVHYESHNKNSVA | NASTRMS | QQYHRLPLS | GP_HC | 4.0 nM | 6/6
KSSQSLLYESRNKNSVA | WGSTRES | GQYARLPLS | Ctrl | 120 nM | 6/6
IVSQLMLIGMHAKNSIA | EAEKRIN | QQYHRLPLM | En_Gen | 64 nM | 5/6
SLSMSMAFLSRNKNSVA | ENSTRES | QQYHRLPLM | En_HC | 26 nM | 6/6
KLSQSDLYEDRNLNNVA | NASQRES | QVYHRLPLM | GP_Gibbs | 480 pM | 6/6
KLSMHYRYESENKNSIA | ELVTRMS | QQYHRLPLS | En_HC | 26 nM | 6/6
MISSVMGINNMYQSSVA | QAEERVE | QQYDRLPLA | En_Gen | 200 nM | 3/6
KIGMTLNQLMHKKNNVA | DLVERAN | QQYHRLPLS | En_Gen | 4.9 nM | 6/6
KLPFSTLYESRQKNSVA | WASTRES | QQYHRLPLS | GP_HC | 43 nM | 6/6
KLYQSNKYESRMKNSVA | NASQRMQ | QQYHRLPLS | GP_Gibbs | 8.2 nM | 6/6
IISQSVMFEQTLINSVA | NAQTREE | QQYHRLPLS | En_HC | 7.4 nM | 6/6
KLSQSVLYEERNKNSVA | DASTRES | QQYHRLPLS | GP_Gen | 950 pM | 6/6
KSLQMQEYESRNKNSVA | HASTRED | QQYHRLPLS | GP_HC | 2.6 nM | 6/6
MMSQVTGLGQRHRNNVA | QTSTRCE | QQYDRLPLV | En_Gen | 23 nM | 6/6
MISQVMGLNNSYKSSVA | QAEERNQ | QQYDHLPLS | En_Gen | 290 nM | 5/6
KSSQSLLYESRNKNSVA | WASTREQ | QQYHRLPLS | Ctrl | 11 nM | 6/6
KVSQSTLYESGTKNSVA | NASSRES | QQYHRLPLS | GP_HC | 6.9 nM | 6/6
TVSQVHEMLTHNKNSVA | DMNTRES | QQYDRLPLS | En_HC | 1.2 nM | 6/6
KLSGSVLYESRNKNSVA | TASTRES | QQYHRLPLS | Ctrl | 870 pM | 6/6

Second part, the sequence after the result:

apparent Kd | seen in | CDR-L1 | CDR-L2 | CDR-L3 | group
10 nM | 6/6 | FMDFQHLEWQYDANNIA | GATLSVE | QQYGRLPLT | En_Gibbs
nd | 0/6 | KSSQSVRYESLNKNSVA | WASTRES | QDYDRLPLS | Ctrl
340 pM | 6/6 | KLSQSVLYEDRNKNSVA | NASQRES | QQYHRLPLS | GP_Gen
310 nM | 5/6 | KIMQSLNYEQFNVSSVA | GQETRER | QSYHRLPLS | En_HC
nd | 0/6 | KASQSVLYESRNKNSVA | DASTRES | QQYHRLPLS | Ctrl
1.1 nM | 6/6 | KMSQSVLYESHNKNSVA | SASTRES | QQYHRLPLS | Ctrl
1.3 nM | 6/6 | KLPQSWGYESRNKNSVA | NASTRES | QQYHRLPLS | GP_Gen
720 pM | 6/6 | KSPTSVLYESRNKNSVA | QASTRES | QDPHRLPLS | Ctrl
27 nM | 6/6 | KFAGGLDYNTAHKSAIA | HADIRNI | QQYFRLPLD | En_Gibbs
13 nM | 6/6 | QMKMSLLQGIYIKDSVA | QSDIREL | QQYEHLPLS | En_Gibbs
2.8 nM | 6/6 | KLVESELYESRQSNAVA | NASYREE | QQYHRLPLS | GP_Gibbs
950 pM | 6/6 | KSGCGQLYESRNKNSVA | GASTRES | QQYHRLPLS | GP_HC
280 pM | 6/6 | KLPQSVLYESRNKNSVA | SASQRES | QQYHRLPLS | GP_Gen
1.0 nM | 6/6 | KLSQSVLYESVNKNSVA | NASTRES | QQYHRLPLS | Ctrl
440 pM | 6/6 | KLSPSVEYESRNKNSVA | NASTRES | QQYHRLPLS | GP_HC
12 nM | 1/6 | KSSQSELYESTNKNSVA | YASTRES | QMYHYLPIS | Ctrl
1.2 nM | 6/6 | KISQSVGYEDRNKNSVA | NAQQRMQ | QQYHRLPLS | GP_Gibbs
670 pM | 6/6 | KLLQSVLYEDRNKNSVA | HASTRED | QQYHRLPLS | GP_HC
3.4 nM | 6/6 | NIEGVEFEMAMHGNSVA | GVDLREA | QQYFRLPLH | En_Gibbs
3.6 nM | 6/6 | NIYQAMHTLSQMKDNVA | DVEERGS | QQYFRLPLS | En_Gen
720 pM | 6/6 | KMSQSVLFEWRNKNSVA | DASTRES | QQYHRLPLS | GP_HC
1.4 nM | 6/6 | KLSQSDDYESRNKNSVA | EASTRES | QQYHRLPLS | GP_Gen
99 nM | 4/6 | KSSQSVLYESRNKNEVA | WASERES | QQYHRLPLS | Ctrl

7 of these entries, quoted again:

| CDR-L1 | CDR-L2 | CDR-L3 | group | apparent Kd | seen in |
|---|---|---|---|---|---|
| QMKMSLLQGIYIKDSVA | QSDIREL | QQYEHLPLS | En_Gibbs | 13 nM | 6/6 |
| KSSQSLLYESRNKNSVA | WGSTRES | GQYARLPLS | Ctrl | 120 nM | 6/6 |
| KLYQSNKYESRMKNSVA | NASQRMQ | QQYHRLPLS | GP_Gibbs | 8.2 nM | 6/6 |
| KLSQSVLYEDRNKNSVA | NASQRES | QQYHRLPLS | GP_Gen | 340 pM | 6/6 |
| KISQSVGYEDRNKNSVA | NAQQRMQ | QQYHRLPLS | GP_Gibbs | 1.2 nM | 6/6 |
| KIMQSLNYEQFNVSSVA | GQETRER | QSYHRLPLS | En_HC | 310 nM | 5/6 |
| KLSQSVLYESVNKNSVA | NASTRES | QQYHRLPLS | Ctrl | 1.0 nM | 6/6 |

Data: MIT Lincoln Laboratory AlphaSeq set, Li et al. 2023, doi:10.1038/s41467-023-39022-2, as distributed in FLAb.